## scFv variants of Ab-14 (light chain) against a SARS-CoV-2 spike peptide

Target peptide (SARS-CoV-2 spike, HR2 region): PDVDLGDISGINAS

Parent: Ab-14, a human scFv built as VH, a (GGGGS)3 linker, VL. Only the CDRs of the light chain vary.
VH: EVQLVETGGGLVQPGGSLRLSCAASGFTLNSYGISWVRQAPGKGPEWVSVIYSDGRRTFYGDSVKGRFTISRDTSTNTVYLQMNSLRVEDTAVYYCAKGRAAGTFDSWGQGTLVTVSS
VL: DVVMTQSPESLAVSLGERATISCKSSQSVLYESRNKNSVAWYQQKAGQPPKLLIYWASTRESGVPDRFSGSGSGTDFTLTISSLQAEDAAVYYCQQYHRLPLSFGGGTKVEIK

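The parent was found by panning a naive human phage display library on the peptide. AAYL50 was designed without a model: most single CDR substitutions and a random sample of double and triple ones. AlphaSeq pools MATa yeast showing the antibodies with MATalpha yeast showing the peptide. The frequency of each diploid, read from paired DNA barcodes, reflects how well the two displayed proteins bind. A regression on co-assayed BCL2-family reference pairs converts the normalised counts of each replicate to an apparent Kd. Each pool was mated in three replicate cultures.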

Positions count from residue 1 of the parent VL; Y31E puts E in place of Y.
All variants listed here change Y31 of the VL, counted from its first residue.
The Kd shown is the geometric mean over detected replicates; a lower Kd is a better binder.
An entry "nd" has no value in the source: the pair was not observed among the diploids in any replicate. This suggests poor binding but is not conclusive.
Three control strains display no target. For library AAYL50, 18% of the pairings with them gave a signal, with a median of 15 µM and one signal in twenty below 970 nM, so weak values seen in few replicates may be background.

The variant Y31E+S103W gave 15 nM (3 of 3 replicates).
The variant S26P+Y31D+S38I gave 79 µM (2 of 3 replicates).
The variant S25F+Y31N+V39A gave 34 nM (3 of 3 replicates).
The variant S28R+Y31C+Q95D gave 210 nM (1 of 3 replicates).
The variant L30Q+Y31H+S33M gave nd (0 of 3 replicates).
The variant Y31G+R34V+W56Q gave 640 pM (3 of 3 replicates).
The variant Y31S+A57C+S62C gave 530 nM (2 of 3 replicates).
The variant Y31C+E32K+E61H gave 2.3 µM (3 of 3 replicates).
The variant Y31P+R34I+S103M gave 18 nM (3 of 3 replicates).
The variant S26E+Y31F+S58T gave 9.3 nM (3 of 3 replicates).
The variant Q27N+Y31G gave 7.8 µM (2 of 3 replicates).
The variant Y31V+S38E+A57D gave 63 µM (2 of 3 replicates).
The variant L30K+Y31N+R60N gave nd (0 of 3 replicates).
The variant S25F+Y31M+R60S gave 60 nM (3 of 3 replicates).
The variant S28L+Y31F+A57D gave 57 nM (3 of 3 replicates).
The variant Y31E+S38E+P101M gave nd (0 of 3 replicates).
The variant V29T+Y31D+E32T gave 94 nM (3 of 3 replicates).
The variant Y31T+A57S gave 12 nM (3 of 3 replicates).
The variant K24G+Y31Q+R60D gave 8.6 µM (2 of 3 replicates).
The variant Y31S+S33P+K36T gave 5.1 nM (3 of 3 replicates).
The variant Y31R+V39N+R99G gave nd (0 of 3 replicates).
The variant S28G+Y31I+S38Y gave nd (0 of 3 replicates).
The variant Y31T+N35P+R60V gave 19 µM (3 of 3 replicates).
The variant S26W+Y31S+L100H gave 130 nM (3 of 3 replicates).
The variant Y31F+S33H+L100G gave 220 nM (3 of 3 replicates).
The variant Y31C+A40I+A57W gave nd (0 of 3 replicates).
The variant Y31P+T59S+S62D gave 25 nM (3 of 3 replicates).
The variant Y31L+N35G+S38L gave nd (0 of 3 replicates).
The variant Y31K+S33L+Y97H gave 5.4 nM (3 of 3 replicates).
The variant Y31D+N37W+S38N gave 8.3 nM (3 of 3 replicates).
The variant Y31S+S58K+Q96H gave 410 nM (3 of 3 replicates).
The variant K24R+Y31D+S38C gave 2.6 µM (2 of 3 replicates).
The variant Y31H gave nd (0 of 3 replicates).
The variant Y31G+V39D+E61N gave nd (0 of 3 replicates).
The variant Y31K+R99S gave 19 µM (1 of 3 replicates).
The variant Y31I+S58Q+P101M gave 15 nM (3 of 3 replicates).
The variant Y31D+S33P gave 240 nM (3 of 3 replicates).
The variant Y31L+S58W+R99A gave 150 nM (3 of 3 replicates).
The variant L30I+Y31D+L100T gave 34 nM (3 of 3 replicates).
The variant Y31K+S38Q+Y97S gave nd (0 of 3 replicates).

The first 6 variants above that were never detected:

| changes | Kd (apparent) | replicates with signal |
|---|---|---|
| L30Q+Y31H+S33M | nd | 0/3 |
| L30K+Y31N+R60N | nd | 0/3 |
| Y31E+S38E+P101M | nd | 0/3 |
| Y31R+V39N+R99G | nd | 0/3 |
| S28G+Y31I+S38Y | nd | 0/3 |
| Y31C+A40I+A57W | nd | 0/3 |

Reference: Engelhart et al. 2022, doi:10.1038/s41597-022-01779-4. File: FLAb, binding data.